The values that follow come from publication PMC7281150, “Inspired by Sea Urchins: Warburg Effect Mediated Selectivity of Novel Synthetic Non-Glycoside 1,4-Naphthoquinone-6S-Glucose Conjugates in Prostate Cancer” (Marine Drugs, 2020).

Like-named read-outs stand apart in the source and are kept apart here.

Data set [1] is described as follows: in vitro. The following applies: human, PC-3, 10 μM, read-out: Viable cells (Annexin-V-FITC(–)/PI(–), LL quadrant). In kind it is cell-based.
Data set [2] can be described thus: in vitro. In kind it is cell-based. The following applies: human, 22Rv1, 10 μM, read-out: Viable cells (Annexin-V-FITC(–)/PI(–), LL quadrant). How it is done:
To examine induction of drug-induced apoptosis FACS-based analysis with Annexin-V-FITC and propidium iodide (PI) double staining was performed as previously described. Cells were seeded in 6-well plates (2 × 10^5 cells/well) and incubated overnight. Treatment with the substances was performed in 2 mL fresh culture media/well for 48 h. Cells were harvested by trypsination, stained with Annexin-V-FITC and PI for 15 min, and analyzed using FACS Calibur (BD Bioscience, San Jose, CA, USA). The results were quantified using BD Bioscience Cell Quest Pro v.5.2.1. software (BD Bioscience, San Jose, CA, USA).

In the case of `COc1ccc(C[C@H]2NC[C@H](O)[C@H]2OC(C)=O)cc1` [Aniso, Anisomycin, reference compound], the viability at 48 h, 10 µM in “in vitro [1]” (+ zVAD (100 µM, 1 h pre-treatment)) came out at 91.7 ± 2.6%; in the data set “in vitro [1]” (- zVAD), 85.6 ± 1%; in “in vitro [2]”, 47.5 ± 4.1%.
